According to patent US12637413B2, “Fatty acid amide hydrolase (FAAH) cleavable prodrugs of thyromimetics and combination with peripherally restricted FAAH inhibitors” (Autobahn Therapeutics, Inc., priority 2021, dated 2026):

What was measured:
primary OPC cultures = experiment: oligodendrocyte progenitor cell (OPC) differentiation assay; settings: read-out: oligodendrocyte differentiation EC50; 5 days, MBP staining normalized to total cell count
[1] = brain and plasma concentration after 21 days of repeat administration, rat cuprizone model; settings: 21 days repeat administration 30 or 100 μg/kg, 4 hours post-final dose
[2] = tissue distribution (brain and plasma AUC) after single PO administration; format: in vivo; settings: 100 μg/kg PO single, male C57BL/6 mouse, AUC 0-24 hr

Compound: CC(C)c1c(O)ccc(Cc2c(Cl)cc(OCC(=O)O)cc2Cl)c1F
- EC50 (primary OPC cultures): 1.4 nM
- brain exposure of active compound compared to prodrug [1]: enhanced brain exposure
- Brain AUC [2]: 73.9 ng·h/mL
